Experimental data from paper PMC2645672, “Mechanism of Neuronal versus Endothelial Cell Uptake of Alzheimer's Disease Amyloid β Protein” (PLoS ONE, 2009).

What was measured:
[1] = test system: differentiated PC12 cells; test: Cellular uptake by flow cytometry in differentiated PC12 cells; conditions: 15 µg/ml F-Aβ40 and 20 µg/ml AF633-Trf; for Uptake at 4°C versus 37°C (histograms of cellular fluorescence): 30 min, cells trypsinized, flow cytometry; for Uptake in ATP depleted cells versus normal cells (flow cytometry): 30 min pre-incubation with sodium azide and 50 mM 2-deoxy-D-glucose in glucose free DMEM, 37°C
[2] = test system: wild type (WT) mouse brain slices, hippocampal neurons; test: Localization of F-Aβ40 and AF633-Trf in brain slices (laser confocal microscopy); conditions: 15 µg/ml F-Aβ40 and 20 µg/ml AF633-Trf in KRB, 30 min, acidified KRB wash

AF633-Trf: Alexa Fluor 633 labeled transferrin, a clathrin mediated endocytosis marker [reference compound]
Uptake at 4°C versus 37°C (histograms of cellular fluorescence) [1]: significantly lower
Uptake in ATP depleted cells versus normal cells (flow cytometry) [1]: significantly impaired
Signal toward the center of the neuronal cell body at 4°C versus 37°C [2]: decreased significantly

F-Aβ40: fluorescein labeled human Aβ40
Uptake at 4°C versus 37°C (histograms of cellular fluorescence) [1]: not significantly different
Uptake in ATP depleted cells versus normal cells (flow cytometry) [1]: significantly higher
Signal toward the center of the neuronal cell body at 4°C versus 37°C [2]: not significantly affected
